Series [1] relates to behaviorally-diagnosed psychiatric conditions (DSM categories). Also noted: species or system human. Particulars: in vivo.
For series [2] the following is noted: in vivo; cited from earlier work.

Structures can show the parent of a compound that is named as a salt.

For the compound `CC(C)NCC(O)COc1cccc2ccccc12` (centres unmarked) [PROPRANOLOL], in series [1], the “use code of agent in 296.90 Mood Disorder NOS” value is listed as “N”; the “use code of agent in 301.13 Cyclothymic Disorder” value is “N”; the “use code of agent in 312.39 Trichotillomania” value is “N”; the “use code of agent in 316 Psychological Factors Affecting Medical Condition, Hypertensive Disorder NOS” value is “N”.

As for `[Li]` [Lithium, reference compound], in series [1], the “use code of agent in 296.90 Mood Disorder NOS” value is given as “N” and the “use code of agent in 300.4 Dysthymic Disorder” value was “N”.

`CC(C)NCC(O)COc1ccc(CC(N)=O)cc1` (centres unmarked) [ATENOLOL]: in series [1], the “use code of agent in 296.90 Mood Disorder NOS” value was “N”, the “use code of agent in 300.4 Dysthymic Disorder” value is listed as “N”, the “use code of agent in 301.13 Cyclothymic Disorder” value is “N” and the “use code of agent in 312.39 Trichotillomania” value was “N”. In addition, in series [1], the “use code of agent in 316 Psychological Factors Affecting Medical Condition, Hypertensive Disorder NOS” value is “N”.

Broadly, the half-life is the time in which the quantity being followed falls by half. Regarding `CNCCC(Oc1ccc(C(F)(F)F)cc1)c1ccccc1` (centres unmarked) [PROZAC, fluoxetine hydrochloride], in series [2], the half-life is not above 16 days and the “users being even slower metabolizers” value is on record as not above 7%.

`CNCCC(Oc1ccc(C(F)(F)F)cc1)c1ccccc1` (centres unmarked) [FLUOXETINE]: the “use code of agent in 316 Psychological Factors Affecting Medical Condition, Hypertensive Disorder NOS” value in series [1] is on record as “N”.
